Consider one molecule from patent publication US20200368267A1, “PROPHYLACTIC AND/OR THERAPEUTIC AGENT FOR AMYOTROPHIC LATERAL SCLEROSIS” (KYOTO UNIVERSITY, priority 2017, published 2020).

This assay concerns MNs with mutant SOD1 gene (L144FVX). Description: Large scale screen using ALS MN (MN survival readout). It is filed as cell-based, human. The protocol:
iPS cell cells containing LNI cassette were dissociated into single cells using Accutase, and seeded together with 1 μg/ml of doxycycline (TAKARA, Kusatsu, Japan) in N3 medium containing 1 μM retinoic acid, 1 μM SAG, 10 ng/ml BDNF, 10 ng/ml GDNF, and 10 ng/ml NT-3 on a 96 well plate (BD Bioscience) coated with Matrigel. The cells were fixed and stained on days 7 and 14. The number of viable MNs stained with βIII-tubulin was quantified by IN Cell Analyzer 6000 and expressed as the number of day 14/day 7. […] In this assay, therefore, βIII-tubulin positive neurons were defined as MN. Neurite and cell body were detected by optimized fluorescence levels, and the number of cell bodies having neurite was counted as the number of surviving neurons using IN Cell Developer toolbox software 1.9.
iPS cell cells containing LNI cassette were dissociated into single cells using Accutase, and seeded together with 1 ng/ml of doxycycline in N3 medium containing 1 μM RA, 1 μM SAG, 10 ng/ml BDNF, 10 ng/ml GDNF and 10 ng/ml NT-3 on a 96 well plate (BD Bioscience) coated with Matrigel. The libraries used for drug screening were Microsource US Drugs (Microsource Discovery Systems), Microsource International Drugs (Microsource Discovery Systems), and kinase inhibitor purchased from EMD and Selleck Chemicals. […] The number of viable MNs stained with βIII-tubulin was quantified by IN Cell Analyzer 6000.

In the case of `C[C@@H]1C[C@H]2[C@@H]3C[C@H](F)C4=CC(=O)C=C[C@]4(C)[C@@]3(F)[C@@H](O)C[C@]2(C)[C@@]1(O)C(=O)CO` [flumethasone], the MN index is 6.756.
